Here are results for 25 molecules from PubChem BioAssay AID1285 (Columbia University Molecular Screening Center, 2008).

The inhibition is the drop in the measured response relative to a control, in per cent.

The structures appear in SMILES notation. The entries are a selection whose mix differs from that of the whole data set. Calls of active or inactive are those of the source.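 Rule for the calls: active = inhibition above a set limit, derived from the sample mean plus 3 SD (cut at about 45% in these data); inconclusive = one replicate passes the limit while the other fails; inactive = the rest.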

This assay can be described thus: inhibitors of APP translation via 5'UTR reporter, primary screen, APP 5'UTR luciferase, SH-SY5Y cells (AID 1285). Particulars: SH-SY5Y APP 5'UTR-luciferase reporter, luminescence; at 2 µM; active compounds read high.
On to `CN(C)c1ccc(C(=O)NCC2(N3CCCCC3)CCCCC2)cc1`, for which the inhibition is inactive: 7.5%. The figure for `CCN1CCC(Nc2cccc(F)c2)CC1` is inactive: 14.3%; for `CC(C)(C)OC(=O)N1CCC(Nc2ccccc2)CC1` it is inactive: -9.5%; for `CCOc1ncccc1C(=O)NCC1(N2CCOCC2)CCCCC1` it is inactive: 5.3%. With `CCC(CO)(C(=O)OC1CN2CCC1CC2)c1ccccc1` (stereo not given), the inhibition is inactive: -3.6%.

As to `COc1cc(OC)cc(C(=O)NCC2(N3CCOCC3)CCCCC2)c1`, the inhibition is inactive: 12.5%. The figure for `COc1ccc(C(=O)NCC2(N3CCOCC3)CCCCC2)cc1OC` is inactive: 10.3%; for `O=C(OC1CN2CCC1CC2)C1c2ccccc2C=Cc2ccccc21` (stereo not given) it is inactive: 2.4%.

With `N/C(=N\O)c1c(N)no[n+]1[O-]`, the inhibition is inactive: 5.2%. The figure for `N#Cc1ccc(C(=O)NCC2(N3CCCCC3)CCCCC2)cc1` is inactive: 13.9%; for `c1ccc(CN2CCC(Nc3ccccc3)CC2)cc1` it is inactive: -4.4%; for `O=C(NCC1(N2CCCCC2)CCCCC1)c1cccc([N+](=O)[O-])c1` it is inactive: -4.1%. Regarding `N#CC1(Nc2ccccc2)CCN(CCc2ccccc2)CC1`, the inhibition is inactive: -0.1%.

Take `COc1ccc(NC2CCN(C(=O)OC(C)(C)C)CC2)cc1`: the inhibition is inactive: -8.1%.

For the molecule `CN1CCN(CCOC(=O)C(O)(c2ccccc2)c2ccccc2)CC1`, the inhibition was inactive: 20.3%. The figure for `O=C(NCC1(N2CCOCC2)CCCCC1)c1cc(=O)[nH]c2ccccc12` is inactive: -13.2%; for `CN(C)c1cccc(C(=O)NCC2(N3CCCCC3)CCCCC2)c1` it is inactive: 10.6%. The figure for `COc1ccc(CN(CCCl)CCCl)cc1Cl` is inactive: -25.7%; for `CC(C)c1ccc(NC2CCN(C(=O)OC(C)(C)C)CC2)cc1` it is inactive: -58.2%; for `CN1CCC(Nc2cccc(F)c2)CC1` it is inactive: -2.6%. The figure for `COc1ccc(C(=O)NCC2(N3CCCCC3)CCCCC2)c(OC)c1OC` is inactive: 5.3%; for `CCOC(=O)N1CCC(Nc2ccc(OC)cc2)CC1` it is inactive: -3%; for `O=C(OC1CN2CCC1CC2)C1c2ccccc2Oc2ccccc21` (stereo not given) it is inactive: 3.2%.

In the case of `O=C(NCC1(N2CCOCC2)CCCCC1)c1cc2ccccc2o1`, the inhibition is inactive: 2.5%.

Consider `COc1ccc(NC2CCN(CCc3ccccc3)CC2)c(OC)c1`, for which the inhibition was inactive: 11.1%.
